Read-outs that look alike come from different tables or passages of the source.
Details: triglycerides 70% caprylic, 30% capric acid, lipid content 20%, room temperature

SMILES: COCCOC(=O)C1=C(C)NC(C)=C(C(=O)OC(C)C)C1c1cccc([N+](=O)[O-])c1 (stereo not shown) [Nimodipine]
- Solubility of nimodipine in the emulsion of esters principally of medium chain-length fatty acids (benzyl alcohol 0% W/W): 0.16%
- Solubility of nimodipine in the emulsion of esters principally of medium chain-length fatty acids (benzyl alcohol 2% W/W): 0.22%
- Solubility of nimodipine in the emulsion of esters principally of medium chain-length fatty acids (benzyl alcohol 4% W/W): 0.36%
- Solubility of nimodipine in the emulsion of esters principally of medium chain-length fatty acids (benzyl alcohol 5% W/W): 0.46%

Reference: US4711902A, “Medicament formulation” (Bayer Aktiengesellschaft, priority 1983, dated 1987)
